Measured values as given in ChEMBL document CHEMBL1151474, “Replication of Colonic Crohn's Disease Mucosal Escherichia coli Isolates within Macrophages and Their Susceptibility to Antibiotics” (Antimicrob Agents Chemother, 2008).
Active and inactive are the calls of the source. The rule behind the calls is not given here.

Tested on: Escherichia coli
Experiment: Antibacterial activity against Escherichia coli ATCC 25922 after 24 hrs by Etest antibiotic concentration gradient method
Assay type: functional, organism-based

Question: How did the Activity turn out when O=C(O)c1cn(C2CC2)c2cc(N3CCNCC3)c(F)cc2c1=O [CIPROFLOXACIN] was run?
Answer: Active
